Data reported in patent US11707503B2, “Modulators of complement activity” (Ra Pharmaceuticals, Inc., priority 2015, dated 2023).

System: thrombin-induced complement pathway
Assay: Inhibition of hemolysis in the thrombin-induced complement pathway (C5, C6, thrombin, then C7, C8, C9)
Type: cell-based
Experimental: These diluted samples were mixed with antibody-sensitized sheep erythrocytes (Complement Technology, Tyler, Tex.) in a 96-well microtitre plate (USA Scientific, Ocala, Fla.) and incubated at 37° C. for 5 minutes. C7 (Complement Technology, Tyler, Tex.) was then added to the wells to achieve a concentration of 15 nM and the plate was returned to 37° C. for 15 minutes. A complex of C8 (10 nM; Complement Technology, Tyler, Tex.) and C9 (25 nM; Complement Technology, Tyler, Tex.) was then added to the assay mixture and the samples were incubated for 30 minutes at 37° C.
The reaction was stopped with the addition of hirudin. The diluted samples were mixed with antibody-sensitized sheep erythrocytes and then incubated for 5 minutes at 37° C. Purified C7 was added and incubated for 15 minutes at 37° C. A complex of purified C8 and C9 was then added and the mixture was incubated for 30 minutes at 37° C.

B1: anti-C5 monoclonal antibody: an anti-C5 monoclonal antibody similar to ECULIZUMAB® (antibody, chains of the INN, looked up)
heavy: QVQLVQSGAEVKKPGASVKVSCKASGYIFSNYWIQWVRQAPGQGLEWMGEILPGSGSTEYTENFKDRVTMTRDTSTSTVYMELSSLRSEDTAVYYCARYFFGSSPNWYFDVWGQGTLVTVSSASTKGPSVFPLAPCSRSTSESTAALGCLVKDYFPEPVTVSWNSGALTSGVHTFPAVLQSSGLYSLSSVVTVPSSNFGTQTYTCNVDHKPSNTKVDKTVERKCCVECPPCPAPPVAGPSVFLFPPKPKDTLMISRTPEVTCVVVDVSQEDPEVQFNWYVDGVEVHNAKTKPREEQFNSTYRVVSVLTVLHQDWLNGKEYKCKVSNKGLPSSIEKTISKAKGQPREPQVYTLPPSQEEMTKNQVSLTCLVKGFYPSDIAVEWESNGQPENNYKTTPPVLDSDGSFFLYSRLTVDKSRWQEGNVFSCSVMHEALHNHYTQKSLSLSLG
light: DIQMTQSPSSLSASVGDRVTITCGASENIYGALNWYQQKPGKAPKLLIYGATNLADGVPSRFSGSGSGTDFTLTISSLQPEDFATYYCQNVLNTPLTFGQGTKVEIKRTVAAPSVFIFPPSDEQLKSGTASVVCLLNNFYPREAKVQWKVDNALQSGNSQESVTEQDSKDSTYSLSSTLTLSKADYEKHKVYACEVTHQGLSSPVTKSFNRGEC
inhibition of hemolysis by the thrombin-induced complement pathway in words: did not
